Laboratory results taken from US10137210B2, “Thioflavin derivatives for use in antemortem diagnosis of Alzheimer's disease and in vivo imaging and prevention of amyloid deposition” (UNIVERSITY OF PITTSBURGH—OF THE COMMONWEALTH SYSTEM OF …, priority 2000, dated 2018).

Protein sequences, listed by entry. Tags and fused reporters are not part of them. Residues count along the entry.
UniProt P05067, 672-711: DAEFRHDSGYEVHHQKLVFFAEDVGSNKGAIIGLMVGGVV

Molecular target: Aβ(1-40) fibrils (Homo sapiens (Human), UniProt P05067)
Assay: [N-methyl-11C]BTA-1 binding assay with Aβ(1-40) fibrils
Conditions: competition for Aβ sites, FIG. 5 right panel

**Q.** Cc1ccc2c(c1)sc(-c1ccc(N(C)C)cc1)[n+]2C.[Cl-] [ThT, Thioflavin T, reference compound] was tested. Which Ki did it give?
**A.** The Ki was 1.9 ± 0.51 µM.
